Structures are written as SMILES.

Protein sequences, listed by entry. Tags and fused reporters are not part of them.
UniProt P11170, whole entry: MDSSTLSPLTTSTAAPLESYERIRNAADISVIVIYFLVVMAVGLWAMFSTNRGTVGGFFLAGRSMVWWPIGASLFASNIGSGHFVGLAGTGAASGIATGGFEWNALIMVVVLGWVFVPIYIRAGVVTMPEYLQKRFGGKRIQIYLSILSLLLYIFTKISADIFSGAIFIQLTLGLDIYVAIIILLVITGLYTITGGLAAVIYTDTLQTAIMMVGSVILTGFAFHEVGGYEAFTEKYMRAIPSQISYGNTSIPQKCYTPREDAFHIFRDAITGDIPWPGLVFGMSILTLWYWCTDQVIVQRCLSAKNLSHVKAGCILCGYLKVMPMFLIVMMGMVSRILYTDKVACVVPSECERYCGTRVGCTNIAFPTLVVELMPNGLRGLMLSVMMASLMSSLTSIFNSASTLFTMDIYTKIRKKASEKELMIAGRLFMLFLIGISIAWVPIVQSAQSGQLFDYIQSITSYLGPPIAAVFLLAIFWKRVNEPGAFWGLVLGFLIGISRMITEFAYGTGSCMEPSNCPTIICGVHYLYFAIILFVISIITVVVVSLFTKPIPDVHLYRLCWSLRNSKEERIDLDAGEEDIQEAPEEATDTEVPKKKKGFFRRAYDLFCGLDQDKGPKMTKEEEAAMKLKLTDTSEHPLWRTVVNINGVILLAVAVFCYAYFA

What is called IC50 is the concentration that gives 50% inhibition.

The target in this assay is SGLT Brush Border Membrane (Oryctolagus cuniculus, UniProt P11170). The assay can be described thus: Glucose uptake by brush border membrane vesicles (transport assay). It counts as biochemical. Conditions: read-out: IC50 SGLT Brush Border Membrane; examples of Formula III; rabbit small intestine vesicles.
Take `OC[C@H]1O[C@@H](Oc2ccccc2Cc2ccccc2)[C@H](O)[C@@H](O)[C@@H]1F`: the IC50 turned out to be 0.7 µM.

Turning to `Cc1cc(O)c(C(=O)CCc2ccc3occc3c2)c(O[C@@H]2O[C@H](CO)[C@H](F)[C@H](O)[C@H]2O)c1`, the IC50 came out at 0.4 µM.

Regarding `COc1ccc(Cc2ccccc2O[C@@H]2O[C@H](CO)[C@@H](F)[C@H](O)[C@H]2O)cc1`, the IC50 came to 0.5 µM.

Values taken from US20120270819A1, “USE OF COMPOUNDS WITH SGLT-1/SGLT-2 INHIBITOR ACTIVITY FOR PRODUCING MEDICAMENTS FOR TREATMENT OF BONE DISEASE” (SANOFI, priority 2009, published 2012).
